Reported melting point values for industrial, environmental and drug-like chemicals

Values as listed in the OPERA 2.9 repository of K. Mansouri.

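OPERA's authors assembled the values from existing databases and did not measure them anew. The files give a single number for a compound and property, which may rest on several reports. Method, purity and exact conditions of the single measurements are not given. Where a salt, mixture or single isomer is drawn, the source does not say that exactly this form was tested. Some entries may be limits or estimates that an upstream database listed as plain numbers.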

The melting point is given in degrees Celsius. Cells with "–" have no entry in this list. The databases behind each value are named after "via".

structure (SMILES) | name | MP (°C) | via
Cn1nc(C(F)F)c(C(=O)F)c1F | – | 16.3 | eChemPortal
Nn1c(-c2cccnc2)n[nH]c1=S | 4-Amino-5-pyridin-3-yl-4H-[1,2,4]triazole-3-thiol | 191 | OCHEM
CC(=O)N(C)c1ccccc1C(=O)O | Benzoic acid, 2-((acetylmethyl)amino)- | 197 | OCHEM
COc1ccc2c(c1)OCC(C=O)=C2 | 2H-1-Benzopyran-3-carboxaldehyde, 7-methoxy- | 83 | OCHEM
Cn1nnnc1-c1cccc(N)c1 | 3-(1-Methyl-1H-tetrazol-5-yl)aniline | 148 | OCHEM
Clc1ccc(OCCBr)c(Br)c1 | 2-bromo-1-(2-bromoethoxy)-4-chlorobenzene | 31 | OCHEM
NC(=O)N1CCCC(C(=O)O)C1 (stereo unspecified) | 1-Carbamoylpiperidine-3-carboxylic acid | 183 | OCHEM
O=C1c2ccccc2S(=O)(=O)N1CCBr | – | 95 | OCHEM
CS(=O)(=O)c1ccc(Cl)c(C(=O)O)c1 | 2-chloro-5-(methylsulfonyl)benzoic acid | 184 | OCHEM
O=C1C(N(CO)C(=O)NCO)N(CO)C(=O)N1CO (stereo unspecified) | Diazolidinyl urea | 157.8 | eChemPortal
COc1ccc(C2(C(=O)O)CCCC2)cc1OC | 1-(3,4-dimethoxyphenyl)cyclopentanecarboxylic acid | 141 | OCHEM
CCCCCCCCCCCCCCCCC(CO)CCCCCCCCCCCCCC (stereo unspecified) | 1-Octadecanol, 2-tetradecyl- | 39 | eChemPortal
OC(c1ccccc1)c1nc2ccccc2[nH]1 (stereo unspecified) | 2-Hydroxybenzylbenzimidazole | 176 | eChemPortal
Cc1cccc(Cl)c1C | 1,2-Dimethyl-3-chlorobenzene | -23 | eChemPortal
CNCCC(O)c1ccccc1 (stereo unspecified) | 3-(Methylamino)-1-phenyl-1-propanol | 63 | eChemPortal
O=Cc1csc(-c2ccc(F)cc2)n1 | 2-(4-Fluorophenyl)-1,3-thiazole-4-carbaldehyde | 100 | OCHEM
NC(=O)CSc1ccccc1N | 2-[(2-aminophenyl)thio]acetamide | 114 | OCHEM
C=CC(=O)OCC(C)(COC(=O)C=C)N=C=O | 1,1-Bis(acryloyloxymethyl)ethyl isocyanate | -88.9 | eChemPortal
c1ccc2c(c1)ccc1c2ccc2ccc3ccccc3c21 | Benzo[c]chrysene | 125.4 | PubChem
O=[N+]([O-])c1cc(S(=O)(=O)Nc2ccccc2)ccc1Cl | Benzenesulfonamide, 4-chloro-3-nitro-N-phenyl- | 88 | OCHEM
Clc1ccc(Oc2ccc(Cl)c(Cl)c2Cl)cc1Cl | 2,3,3',4,4'-Pentachlorodiphenyl ether | 65 | QSARDB
C=C(C)C(=O)OCCOCCOc1ccc(C(=O)c2ccccc2)cc1 | 2-[2-(4-Benzoylphenoxy)ethoxy]ethyl methacrylate | -48 | eChemPortal
CC(=O)OCCN(CCOC(C)=O)c1ccc(N=Nc2sc([N+](=O)[O-])cc2[N+](=O)[O-])cc1 | – | 145 | eChemPortal
Cc1ccc(-n2cnnn2)cc1N | 2-methyl-5-(1H-tetrazol-1-yl)aniline | 172 | OCHEM
Nc1nc(CN2CCCCC2)cs1 | 4-Piperidin-1-ylmethyl-thiazol-2-ylamine | 154 | OCHEM
Cc1ccc(S(=O)(=O)n2cc(Br)c3cc(F)cnc32)cc1 | – | 162.4 | eChemPortal
CC(=O)OCC(C)(C)COC(C)=O | Neopentyl glycol diacetate | -10 | eChemPortal
CCOC(=O)c1c(-c2ccccc2Cl)csc1N | ethyl 2-amino-4-(2-chlorophenyl)thiophene-3-carboxylate | 69 | OCHEM
O=C(O)c1ccccc1OCCOc1ccccc1 | 2-(2-phenoxyethoxy)benzoic acid | 85 | OCHEM
CCOC(=O)CC(NC1CCC(CC2CCC(NC(CC(=O)OCC)C(=O)OCC)CC2)CC1)C(=O)OCC (stereo unspecified) | Desmophen LS 2973 | -1.8 | eChemPortal
COc1ccccc1NC(=O)CC(=O)Nc1ccccc1OC | N~1~,N~3~-Bis(2-methoxyphenyl)propanediamide | 155 | OCHEM

The last 5 entries again:

structure (SMILES) | name | MP (°C) | via
CC(=O)OCC(C)(C)COC(C)=O | Neopentyl glycol diacetate | -10 | eChemPortal
CCOC(=O)c1c(-c2ccccc2Cl)csc1N | ethyl 2-amino-4-(2-chlorophenyl)thiophene-3-carboxylate | 69 | OCHEM
O=C(O)c1ccccc1OCCOc1ccccc1 | 2-(2-phenoxyethoxy)benzoic acid | 85 | OCHEM
CCOC(=O)CC(NC1CCC(CC2CCC(NC(CC(=O)OCC)C(=O)OCC)CC2)CC1)C(=O)OCC (stereo unspecified) | Desmophen LS 2973 | -1.8 | eChemPortal
COc1ccccc1NC(=O)CC(=O)Nc1ccccc1OC | N~1~,N~3~-Bis(2-methoxyphenyl)propanediamide | 155 | OCHEM